Measured values reported in patent US7790365B2, “Assays for modulators of parkin activity using S5a as a parkin substrate” (Elan Pharma International Limited, priority 2007, dated 2010).

Assays:
S5a [1] = test: thermal denaturation of E3 ligases (S5a ubiquitination after pre-incubation); format: biochemical
Protocol: To characterize the thermal denaturation properties E3 ligases, the E3 was pre-incubated for 90 minutes at a temperature ranging from 4° C. to 60° C. (Mdm2 and Nedd4 at 4, 37, 45, 50 and 60° C.; Murf1 at 4, 37, 50, 60, 70 and 80° C.; E6AP at 37, 39, 41, 43, and 45° C. At 90 minutes, a pre-mix was made containing 50 nM E1, 1 mM Mg-ATP, 5 μM UbcH7 (UbcH5a for Mdm2 and Murf1), 200 nM ubiquitin and 200 nM S5a. The pre-mix was added to 0.2 mg/mL of E3 ligase and incubated at 37° C. for 60 minutes. Samples were run on SDS-PAGE and assessed by Western blotting using monoclonal antibody to S5a (BioMol).

S5a [2] = test: ubiquitination assay of E3 ligases using S5a as the substrate; format: biochemical; conditions: 0.2 mg/mL E3, 200 nM S5a, 1 hour at 37° C., Western blot
Protocol: For each E3 ligase, a ubiquitination assay using S5a as the substrate was carried out. Briefly, the ubiquitination reaction contained 50 nM E1, 1 mM MgATP, 5 μM UbcH7, 0.2 mg/mL E3, 200 nM ubiquitin, and 200 nM S5a. Ubiquitination reactions were incubated for 1 hour at 37° C. and samples were taken at time 0, 30′ and 60′. Samples were run on SDS-PAGE, transferred to immobilon and Western blotted using monoclonal antibody to S5a (BioMol).

## GST-Mdm2: GST fusion of p53-binding protein Mdm2, RING E3 ligase
S5a [1]; E3 pre-incubated 90 minutes at 4, 37, 45, 50 and 60° C.
  S5a ubiquitination activity after thermal pre-incubation: full activity even after pre-incubation at 60 °C; also recorded: retain activity even after pre-incubation at 60 °C
S5a [1]; E3 pre-incubated 90 minutes at 4° C. to 60° C., then S5a ubiquitination 60 minutes at 37° C.
  Thermal Denaturation Temperature (temperature at which approximately 50% of activity was lost): >60 °C
S5a [2]
  Ubiquitinated S5a?: Yes

Entries after “also recorded” stand apart in the source; their conditions may differ.
